AlphaSeq binding of Ab-95 light chain variants to a spike HR2 peptide

Antigen: PDVDLGDISGINAS, a 14-residue peptide of the SARS-CoV-2 spike HR2 region.

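In library AAYL52, one, two or three CDR residues were substituted; doubles and triples were drawn at random. AlphaSeq pools MATa yeast showing the antibodies with MATalpha yeast showing the peptide. Binding brings cells together so that they mate, and sequencing counts the barcode pairs among the diploids. Read counts were normalised to the haploid input and turned into Kd by a linear fit to BCL2-family pairs of known affinity, for each replicate. The assay was run in three technical replicates.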

Parent scFv Ab-95: VH joined to VL by a 15-residue (Gly4Ser)3 linker. Changes lie in the light chain CDRs alone.
VH: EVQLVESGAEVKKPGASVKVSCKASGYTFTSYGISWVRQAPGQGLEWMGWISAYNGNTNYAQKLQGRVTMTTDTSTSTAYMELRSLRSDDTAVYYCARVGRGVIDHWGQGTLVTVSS
VL: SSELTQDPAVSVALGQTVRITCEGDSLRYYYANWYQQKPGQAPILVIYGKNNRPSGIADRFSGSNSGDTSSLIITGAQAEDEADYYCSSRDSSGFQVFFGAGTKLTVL

Positions count from residue 1 of the parent VL; G24N puts N in place of G. Every variant below is changed at N51 of the VL (sequential numbering). The read-out is the apparent dissociation constant on a log10 scale (nM): the lower, the stronger. A mean of the replicates is given; it leaves out those without a signal. "nd" means that the variant was in the library but no mating with the target was seen in any replicate; the authors take this as a sign of poor binding, and no number exists.

For G24N/Y30C/N51K, the assay gave 4.98 (1 of 3 replicates).
For N51Q/S93Y/G94Y, the assay gave 3.79 (2 of 3 replicates).
For R28V/Y29A/N51S, the assay gave 4.04 (3 of 3 replicates).
For Y31I/K50W/N51E, the assay gave 3.20 (1 of 3 replicates).
For N51L/S88R/Q96V, the assay gave 5.15 (2 of 3 replicates).
For R28V/K50F/N51M, the assay gave nd (0 of 3 replicates).
For A32G/N51T/D91C, the assay gave 4.27 (1 of 3 replicates).
For D25L/N51E/P54V, the assay gave 2.25 (3 of 3 replicates).
For Y29Q/N51S, the assay gave 2.43 (3 of 3 replicates).
For Y30I/N51W/R53N, the assay gave 3.99 (1 of 3 replicates).
For N51E/R90M/Q96K, the assay gave 2.99 (3 of 3 replicates).
For N51I/S93L/Q96A, the assay gave nd (0 of 3 replicates).
For R28T/N51H/S93H, the assay gave 3.75 (1 of 3 replicates).
For G24P/R28K/N51G, the assay gave 4.70 (2 of 3 replicates).
For Y30W/N51A, the assay gave 3.48 (3 of 3 replicates).
For N51H/P54S/G94Y, the assay gave 3.35 (3 of 3 replicates).
For Y29I/N51R/R53K, the assay gave 4.45 (3 of 3 replicates).
For G24R/N51L/S89P, the assay gave 3.86 (1 of 3 replicates).
For R28Y/N51F/D91P, the assay gave 4.20 (3 of 3 replicates).
For E23T/D25V/N51A, the assay gave 3.33 (3 of 3 replicates).
For G24D/Y29H/N51V, the assay gave 4.07 (2 of 3 replicates).
For N51A, the assay gave 2.56 (3 of 3 replicates).
For N33Y/N51H/S88D, the assay gave 4.70 (2 of 3 replicates).
For N51D/F98Y, the assay gave 2.16 (3 of 3 replicates).
For R28S/Y30A/N51L, the assay gave 2.71 (3 of 3 replicates).
For N51C/S92I/G94S, the assay gave 4.08 (3 of 3 replicates).
For N51P/S88K/D91P, the assay gave 3.52 (2 of 3 replicates).
For G24V/D25A/N51K, the assay gave 3.20 (3 of 3 replicates).
For D25G/N51W/F98I, the assay gave 3.44 (2 of 3 replicates).
For L27C/N51C/S88E, the assay gave 5.18 (2 of 3 replicates).
For Y30E/N51S, the assay gave 1.55 (3 of 3 replicates).
For K50E/N51D/P54E, the assay gave 3.84 (3 of 3 replicates).
For A32Q/N51W/Q96R, the assay gave 4.26 (1 of 3 replicates).
For N51H/S93C/F98R, the assay gave 4.25 (1 of 3 replicates).

The first 4 entries again:

changes,mean log10 Kd (nM),detected
G24N/Y30C/N51K,4.98,1/3
N51Q/S93Y/G94Y,3.79,2/3
R28V/Y29A/N51S,4.04,3/3
Y31I/K50W/N51E,3.20,1/3

Empty control strains, which show no peptide, gave a signal in 28% of pairings with library AAYL52; the median was 3.91 and 95% of these signals were weaker than 2.90. No background was subtracted. In this assay the parent's reference entry averaged 2.31; its copy inside this library read 2.25.

Data: MIT Lincoln Laboratory AlphaSeq set, Engelhart et al. 2022, doi:10.1038/s41597-022-01779-4, as distributed in FLAb.